One block for each compound: values may come before it.
Columns and labels:
[1] = biological target: calmodulin (recombinant vertebrate CaM) (UniProt P0DP23); assay: NMR titration
[2] = biological target: 15N-CaM (Homo sapiens, UniProt P0DP23); assay: NMR titration of 15N-CaM with AQP0 peptides; parameters: species or system vertebrate; conditions: read-out: apparent dissociation constant, secondary binding event (Kd2); resonances from both N- and C-lobes of CaM; fit in XCRVFIT v4.11; 25°C, pH 6.5, Ca^2+; limited number of data points

- Kd1 (primary binding event) [1]: 3.5 µM
- Kd2 (secondary binding event, C-lobe residues) [1]: 175 µM
- Kd2 (secondary binding event, N-lobe residues) [1]: 33 µM
- stoichiometry N (peptides per CaM) [1]: 2
Compound: AQP0^CBD peptide containing a phosphoserine at residue 235

- Kd [2]: ~6.5 µM
Compound: CC[C@H](C)[C@H](NC(=O)[C@H](CO)NC(=O)[C@H](CC(C)C)NC(=O)[C@H](CCCNC(=N)N)NC(=O)[C@H](CCC(=O)O)NC(=O)[C@H](CO)NC(=O)[C@@H](NC(=O)[C@H](CO)NC(=O)[C@H](CCCCN)NC(=O)[C@H](CC(C)C)NC(=O)[C@H](CCCNC(=N)N)NC(=O)[C@@H]1CCCN1C(=O)[C@H](Cc1ccccc1)NC(=O)[C@@H](N)CC(C)C)C(C)C)C(=O)N[C@@H](CC(C)C)C(=O)N[C@@H](CCCCN)C(=O)NCC(=O)N[C@@H](CO)C(=O)N[C@@H](CCCNC(=N)N)C(=O)N1CCC[C@H]1C(=O)O [AQP0^CBD]

- Kd1 (primary binding event, estimated from slow exchange) [1]: < 100 nM
- Kd2 (secondary binding event, apparent) [1]: 6.5 µM
Compound: AQP0 Calmodulin Binding Domain peptide

Reference: article PMC2605016 (Structure (London, England : 1993), 2008)
